The data set is described as follows: Resonant frequency shift of coaxial resonator coupled to protein solution versus PBS buffer (S11 return loss). Format: physicochemical. Particulars: protein solution in PTFE tube; reference PBS pH 7.4; input test signal approximately 1 GHz, 100 KHz band. How it is done: Using the systems and methods of the present invention, several experiments were performed to detect and identify molecular events in a solution. […] The vector network analyzer used was model number HP 8714 manufactured by Agilent Technologies, Inc. (Palo Alto, Calif.) The computer is an HP Vectra computer (Hewlett Packard Company, Palo Alto, Calif.) executing a graphically user interface (LabView® platform) to control the operation of the network analyzer and to display the resulting data. The coaxial resonator 122 illustrated in FIG. 3A was used in the experiments to illuminate the reference and test samples. […]
In the reference measurement, PBS buffer was introduced into the tube and transported to the detection region, and a S11 (return loss) measurement of the resonator was taken. […] From the measured S11 response, the resonant frequency fres and Q-factor of the resonator were computed and stored, as described above.
Next, each of the aforementioned protein solutions were introduced into the tube and transported to the detection region. The resonator's S11 response was measured (over the same frequency range as above) and the corresponding resonant frequency fres and Q-factor parameters derived therefrom. […] This quantity was subsequently plotted versus the resonator's measured Q-factor when electromagnetically coupled to the test sample. […]

Here are results for one substance from US6586946B2, “System and method for detecting and identifying molecular events in a test sample using a resonant test structure” (Signature BioScience, Inc., priority 2000, dated 2003).

Regarding bovine serum albumin [BSA], the “change in resonant frequency of the resonator (relative to the PBS buffer)” value was around 7.5 KHz.
